# Data from patent publication US20020010201A1, “Method for treating restless leg syndrome using pramipexole and clonidine” (priority 1999, published 2002).
# Test system: patients with RLS
# Assay: Treatment of 2 patients with RLS (therapeutic history, monotherapies and combination therapy of pramipexole and clonidine)
# Details: previous therapy of the 2 RLS patients
# Description: 2 patients with RLS (person and person) were treated with a combination therapy of pramipexole and clonidine.
# 1. […] The clonidine was also initially prescribed in a single dose of 0.075 mg two hours before bedtime and increased by 0.075 mg at intervals of 3 days.
# 2. Treatment with a Combination Therapy of Clonidine and Pramipexole After slowly bringing the clonidine therapy to a complete halt and after a treatment-free period of about 1 week, both patients were treated with a combination of 0.088 mg of pramipexole and 0.075 mg of clonidine. […] After 7 days the dosage of pramipexole had been increased to 0.18 mg and the dosage of clonidine to 0.15 mg, two hours before going to sleep.
substance,measurement,value
bromocryptine,side effects preventing further dose increase,"side effects such as nausea, gastrointestinal problems and dizziness"
